PMC10953480 (RSC Medicinal Chemistry, 2024)

Each compound was assayed on Cos-7 cells.
In the case of `CN(C)CCCOc1ccc(S(=O)(=O)Nc2ccccc2Oc2ccccc2)cc1` [compound 42, 4-(3-(Dimethylamino)propoxy)-N-(2-phenoxyphenyl)benzenesulfonamide], the “concentration up to which well tolerated by Cos-7 cells” value (“concentration up” below) is reported as at most 100 µM.
In the case of `CN(C)CCCOc1ccc(S(=O)(=O)Nc2ccccc2Oc2ccc(C(F)(F)F)cc2)cc1` [compound 44, 4-(3-(Dimethylamino)propoxy)-N-(2-(4-(trifluoromethyl)phenoxy)phenyl)benzenesulfonamide], the “concentration up” value is reported as at most 100 µM.
`CN(C)CCCOc1ccc(S(=O)(=O)Nc2ccccc2Oc2ccc(C#N)cc2)cc1` [compound 45, N-(2-(4-Cyanophenoxy)phenyl)-4-(3-(dimethylamino)propoxy)benzenesulfonamide] was tested, and the “concentration up” value was at most 100 µM.
